Target: Acetylcholinesterase (Homo sapiens, UniProt P22303)
Experiment: In vitro inhibitory activity against human AchE (Acetylcholinesterase)

The chains behind the UniProt entries cited, without tags or fusion partners. Where a name states a change or a piece, a line headed by the entry shows the natural chain unless it says otherwise.
UniProt P22303: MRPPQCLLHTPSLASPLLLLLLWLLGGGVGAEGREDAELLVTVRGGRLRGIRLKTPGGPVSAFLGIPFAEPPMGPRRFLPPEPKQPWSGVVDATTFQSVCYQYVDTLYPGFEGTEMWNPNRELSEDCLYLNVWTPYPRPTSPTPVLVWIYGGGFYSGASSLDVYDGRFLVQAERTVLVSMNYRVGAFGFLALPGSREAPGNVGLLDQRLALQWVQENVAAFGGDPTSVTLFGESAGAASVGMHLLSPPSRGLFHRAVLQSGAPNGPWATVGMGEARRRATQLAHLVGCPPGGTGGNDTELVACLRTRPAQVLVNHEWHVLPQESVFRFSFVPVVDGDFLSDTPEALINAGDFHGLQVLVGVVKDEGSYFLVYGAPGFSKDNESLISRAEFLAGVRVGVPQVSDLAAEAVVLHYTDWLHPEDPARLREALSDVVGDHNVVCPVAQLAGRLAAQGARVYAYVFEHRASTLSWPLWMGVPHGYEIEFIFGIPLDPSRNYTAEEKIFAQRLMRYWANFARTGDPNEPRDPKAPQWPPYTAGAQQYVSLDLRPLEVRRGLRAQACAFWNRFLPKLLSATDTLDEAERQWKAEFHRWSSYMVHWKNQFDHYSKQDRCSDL

CCN1CC[C@@]2(C)c3cc(OC(=O)NC(C)(C)C)ccc3CC12 (mixture of isomers)
IC50: 12.5 µM
